The test system of one assay is Dravet syndrome mice. The assay can be described thus: Long-term ICV infusion, seizure frequency and mortality. The class given is in vivo, mouse. Here is the method:
To determine the long-term efficacy of synthetic Hm1a (Example 1), 24 hours after ICV guide cannula surgery performed as per Example 5, a cohort of Dravet syndrome mice were administered Hm1a (0.5 μM in 0.1% bovine serum albumin in sterile saline) or vehicle (0.1% bovine serum albumin in sterile saline) continuously at a rate of 0.2 L/minute for up to five days using syringe and driver as previously described in Example 5 (n=4). Seizure frequency was measured using continuous video recordings of unrestrained animals from P18 to P23.
Hm1a was infused during the critical window from P19 to P23, when the highest rate of ictal events and mortality occurs in the Dravet syndrome model (Yamakawa (2011) Epilepsia, 52(s2): 70-71). Seizures were abolished following Hm1a administration and these animals remained seizure free for the duration of the experiment (FIG. 16a, left panel), in comparison to control animals which experienced ongoing seizures (FIG. 16a, right panel). Moreover, control animals treated with vehicle only all died within 26 hours, whereas there was no mortality in the cohort of animals treated with Hm1a (FIG. 16b).

Amino acid sequences for entries named in this document (tags omitted).
UniProt Q9UQD0, whole entry: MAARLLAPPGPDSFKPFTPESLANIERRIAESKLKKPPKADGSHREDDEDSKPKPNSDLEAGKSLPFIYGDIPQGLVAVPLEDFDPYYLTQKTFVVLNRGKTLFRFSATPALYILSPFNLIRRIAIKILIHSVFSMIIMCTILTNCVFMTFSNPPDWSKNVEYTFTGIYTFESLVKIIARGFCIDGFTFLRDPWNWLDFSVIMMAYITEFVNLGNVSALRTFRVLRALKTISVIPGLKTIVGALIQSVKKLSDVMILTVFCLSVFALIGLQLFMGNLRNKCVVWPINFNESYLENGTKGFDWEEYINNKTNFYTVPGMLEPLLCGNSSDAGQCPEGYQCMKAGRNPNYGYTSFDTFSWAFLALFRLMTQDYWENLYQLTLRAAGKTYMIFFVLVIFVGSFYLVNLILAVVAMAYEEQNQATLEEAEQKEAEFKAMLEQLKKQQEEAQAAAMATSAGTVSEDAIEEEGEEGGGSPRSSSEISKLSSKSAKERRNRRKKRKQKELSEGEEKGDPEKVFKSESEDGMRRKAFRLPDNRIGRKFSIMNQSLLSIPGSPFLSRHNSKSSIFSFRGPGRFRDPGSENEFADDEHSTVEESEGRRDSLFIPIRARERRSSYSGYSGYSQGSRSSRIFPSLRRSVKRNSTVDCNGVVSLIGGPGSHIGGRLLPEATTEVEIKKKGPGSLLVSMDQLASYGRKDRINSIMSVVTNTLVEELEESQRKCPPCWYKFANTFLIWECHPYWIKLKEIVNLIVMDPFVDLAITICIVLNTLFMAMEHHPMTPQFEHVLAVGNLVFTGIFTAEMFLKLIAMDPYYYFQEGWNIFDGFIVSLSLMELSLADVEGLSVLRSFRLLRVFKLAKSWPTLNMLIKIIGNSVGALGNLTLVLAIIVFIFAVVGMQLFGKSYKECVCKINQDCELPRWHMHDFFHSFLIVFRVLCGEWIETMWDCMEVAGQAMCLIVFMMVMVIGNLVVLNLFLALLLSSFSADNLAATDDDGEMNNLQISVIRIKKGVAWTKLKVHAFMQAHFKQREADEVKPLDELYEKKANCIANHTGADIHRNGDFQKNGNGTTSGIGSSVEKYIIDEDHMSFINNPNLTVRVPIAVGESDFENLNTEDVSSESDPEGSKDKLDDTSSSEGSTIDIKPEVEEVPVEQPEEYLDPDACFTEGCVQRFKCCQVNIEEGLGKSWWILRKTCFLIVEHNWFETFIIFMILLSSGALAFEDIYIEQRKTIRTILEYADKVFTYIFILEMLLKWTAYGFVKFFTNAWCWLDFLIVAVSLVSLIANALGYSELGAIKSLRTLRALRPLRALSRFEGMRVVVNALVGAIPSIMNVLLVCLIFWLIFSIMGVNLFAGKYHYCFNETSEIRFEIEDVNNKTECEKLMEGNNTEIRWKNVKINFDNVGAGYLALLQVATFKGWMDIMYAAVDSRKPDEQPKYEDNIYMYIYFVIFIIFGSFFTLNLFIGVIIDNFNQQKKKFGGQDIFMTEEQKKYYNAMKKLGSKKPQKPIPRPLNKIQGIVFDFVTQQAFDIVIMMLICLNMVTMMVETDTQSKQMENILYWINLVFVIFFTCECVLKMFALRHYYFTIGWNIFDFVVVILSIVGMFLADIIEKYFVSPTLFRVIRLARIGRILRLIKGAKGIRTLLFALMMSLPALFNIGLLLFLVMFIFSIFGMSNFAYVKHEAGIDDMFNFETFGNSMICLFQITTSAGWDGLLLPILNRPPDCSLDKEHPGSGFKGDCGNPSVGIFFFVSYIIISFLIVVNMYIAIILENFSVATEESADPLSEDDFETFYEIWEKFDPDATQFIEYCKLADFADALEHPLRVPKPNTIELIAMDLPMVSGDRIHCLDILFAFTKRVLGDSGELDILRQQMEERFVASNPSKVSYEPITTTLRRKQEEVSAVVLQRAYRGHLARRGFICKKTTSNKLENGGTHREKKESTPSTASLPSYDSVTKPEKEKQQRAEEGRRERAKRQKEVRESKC

The target in a further assay is T1, hNav1.6 (Homo sapiens, UniProt Q9UQD0).
T1 construct: expressed in transfected cells; host or cells: CHO
The assay can be described thus: Automated planar whole-cell patch clamp (Patchliner), hSCN8A CHO cells. Format: cell-based. The settings on record: concentrations tested up to 50 nM. An excerpt:
To characterize the functional activity of Hm1a and Hm1b, HEK293T cells stably transfected with either hSCN1A, hSCN2A, hSCN3A, hSCN5A, hSCN9A or hSCN10A as well as CHO cells stably transfected with hSCN4A or hSCN8A were used for whole-cell patch-clamp analysis with a high throughput automated planar patch-clamp technology.
HEK293T cells stably transfected with either hSCN1A, hSCN2A, hSCN3A, hSCN5A, hSCN9A or hSCN10A were maintained in Dulbecco's Modified Eagle's Medium Nutrient Mixture F-12 (Invitrogen, Carlsbad, Calif., USA) supplemented with 10% (v/v) foetal bovine serum (FBS) (Invitrogen), 0.9% Penicillin/Streptomycin (P/S) solution and 100 μg/mL hygromycin or 100 μg/mL neomycin. CHO cells stably transfected with hSCN4A or hSCN8A were maintained in Ham's F12 Nutrient Mixture (Invitrogen, Carlsbad, Calif., USA) supplemented with 10% (v/v) FBS, 0.9% P/S solution and 100 μg/mL hygromycin. All cells were grown in T75 flasks (BD Biosciences, San Jose, Calif., USA) to ˜70% confluency.
Patch-clamp recordings were conducted in the whole-cell configuration using a Patchliner® (Nanion Technologies, Munich, Germany). […]

Data on one compound can be found in patent US11124550B2, “Proteinaceous molecules and methods of use” (priority 2015, dated 2021).

Consider `CC(C)C[C@@H]1NC(=O)[C@H](Cc2ccc(O)cc2)NC(=O)[C@H](CCCNC(=N)N)NC(=O)[C@@H](NC(=O)[C@@H](N)CCC(=O)O)CSSC[C@@H]2NC(=O)[C@@H]3CSSC[C@@H](C(=O)N[C@@H](C)C(=O)N[C@@H](Cc4c[nH]c5ccccc45)C(=O)N[C@@H](CC(=O)O)C(=O)NCC(=O)N[C@H](C(=O)N[C@@H](Cc4ccccc4)C(=O)N[C@@H](CO)C(=O)O)[C@@H](C)O)NC(=O)[C@H](Cc4ccc(O)cc4)NC(=O)[C@H](CCCCN)NC(=O)[C@H](Cc4c[nH]c5ccccc45)NC(=O)[C@H](CC(=O)O)NC(=O)[C@H](CO)NC(=O)[C@H](CCCNC(=N)N)NC(=O)[C@H](CSSC[C@H](NC(=O)CNC(=O)CNC(=O)[C@H](Cc4ccccc4)NC1=O)C(=O)N[C@@H](CO)C(=O)N[C@@H](CO)C(=O)N[C@@H]([C@@H](C)O)C(=O)N[C@@H](CO)C(=O)N[C@@H](CC(=O)O)C(=O)N3)NC(=O)[C@H](CO)NC(=O)[C@H](CC(C)C)NC(=O)[C@H](Cc1c[nH]cn1)NC(=O)[C@H](CCCCN)NC2=O` [Hm1a], for which, in the assay with Dravet syndrome mice (continuous ICV infusion of Hm1a 0.5 μM, P19 to P23, n=4), the seizures result is given as “abolished”. In addition, the mortality entry in the assay on Dravet syndrome mice (continuous ICV infusion, vehicle controls all died within 26 hours) is “no mortality”. For the same compound, at hNav1.6, the “effect on hNav1.6 current” value is “no effect”.
